Target: T1, CB1 cannabinoid receptor (Rattus norvegicus, UniProt P20272)
T1 construct: membranes were prepared from rat forebrain membranes; from tissue; host or cells: rat forebrain
Test: CB1 receptor binding, rat forebrain membranes, [3H] CP-55,940 displacement
Conditions: ratio of CB2 Ki to CB1 Ki
Protocol: Some of the inventive analogs were tested for CB2 receptor binding affinity and for CB1 receptor affinity (to determine selectivity). […] The lower the Ki value the higher the binding affinity. […]
Membranes, previously frozen at −80° C., were thawed on ice. To the stirred suspension was added three volumes of TME (25 mM Tris-HCl buffer, 5 mM MgCl2 and 1 mM EDTA) at a pH 7.4. The suspension was incubated at 4° C. for 30 min. At the end of the incubation, the membranes were pelleted and washed three times with TME.
The treated membranes were subsequently used in the binding assay described below. Approximately 30 μg of membranes were incubated in silanized 96-well microtiter plate with TME containing 0.1% essentially fatty acid-free bovine serum albumin (BSA), 0.8 nM [^3H] […] Radioactivity was detected using MicroScint 20 scintillation cocktail added directly to the dried filterplates, and the filterplates were counted using a Packard Instruments Top-Count. […] Data collected from three independent experiments performed with duplicate determinations was normalized between 100% and 0% specific binding for [^3H] […] The normalized data was analyzed using a 4-parameter nonlinear logistic equation to yield IC50 values.

Chains of the proteins cited; added tags and fusions are not shown.
UniProt P20272, whole entry: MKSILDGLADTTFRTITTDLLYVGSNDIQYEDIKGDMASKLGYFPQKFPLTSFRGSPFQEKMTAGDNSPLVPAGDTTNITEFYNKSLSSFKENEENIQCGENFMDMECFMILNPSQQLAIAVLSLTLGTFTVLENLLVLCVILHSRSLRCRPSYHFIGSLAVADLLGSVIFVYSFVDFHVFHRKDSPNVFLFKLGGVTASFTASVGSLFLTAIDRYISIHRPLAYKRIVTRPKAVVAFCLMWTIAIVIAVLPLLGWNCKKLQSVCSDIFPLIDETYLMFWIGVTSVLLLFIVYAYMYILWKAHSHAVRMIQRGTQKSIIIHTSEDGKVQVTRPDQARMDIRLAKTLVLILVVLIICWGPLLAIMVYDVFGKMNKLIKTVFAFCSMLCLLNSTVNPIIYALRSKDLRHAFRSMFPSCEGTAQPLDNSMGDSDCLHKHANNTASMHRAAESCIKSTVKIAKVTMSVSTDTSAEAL

Row | Structure (SMILES) | selectivity CB1
1 | Cc1c(C(=O)Nc2ccc3ccccc3c2)nn(CCCCCCl)c1-c1ccccc1 [Compound 4-3] | 1
2 | Cc1c(C(=O)NC2C3CC4CC(C3)CC2C4)nn(CCCCCCl)c1-c1ccccc1 (centres unmarked) [Compound 4-4] | 1.1

From patent publication US8084467B2, “Pyrazole derivatives as cannabinoid receptor antagonists” (University of Connecticut, priority 2004, dated 2011)
